Earlier results on one substance are cited in PMC5775816 (Journal of medicinal chemistry, 2016).

The target in this data set is T1, PAR1 (Homo sapiens, UniProt P25116).
T1 sequence (P25116 22-425): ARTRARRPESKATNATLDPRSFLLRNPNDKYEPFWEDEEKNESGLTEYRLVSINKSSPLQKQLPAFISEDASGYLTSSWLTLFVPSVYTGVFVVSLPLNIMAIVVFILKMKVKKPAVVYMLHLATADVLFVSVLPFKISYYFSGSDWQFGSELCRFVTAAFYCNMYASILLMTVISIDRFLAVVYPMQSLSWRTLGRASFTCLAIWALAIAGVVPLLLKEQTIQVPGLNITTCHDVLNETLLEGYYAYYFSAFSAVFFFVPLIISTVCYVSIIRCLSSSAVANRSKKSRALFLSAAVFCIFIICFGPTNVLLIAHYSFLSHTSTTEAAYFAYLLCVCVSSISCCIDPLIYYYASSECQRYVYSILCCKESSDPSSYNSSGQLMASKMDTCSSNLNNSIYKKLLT
Conditions: read-out: EC50 for PAR1; thrombin as agonist; background statement; cited from earlier work.

Broadly, the EC50 is the midpoint of the concentration-response curve. On to Thrombin, for which the EC50 is about 0.2 nM.
